Biological target: biotinylated AviTagged PPP1R15A^583–621 F592A;R595E (human) (UniProt O75807)

fold decrease in catalytic efficiency (kcat/Km) of eIF2α^P dephosphorylation by PP1A^7–300–PPP1R15A^553–621-MBP F592A;R595E with G-actin, against the wild type: 50 fold
Substance: G-actin (actin purified from rabbit muscle) (from UniProt P68135 1-377) (natural protein)

From publication PMC8500838
